Here are results for four compounds from patent US20250114345A1, “COMPOUNDS AND COMPOSITIONS AS CBP/P300 DEGRADERS AND USES THEREOF” (Oncopia Therapeutics, Inc. d/b/a/ SK Life Science Labs, priority 2023, published 2025).

By UniProt entry, the sequences of proteins in these tests, tags left out.
UniProt Q09472, whole entry: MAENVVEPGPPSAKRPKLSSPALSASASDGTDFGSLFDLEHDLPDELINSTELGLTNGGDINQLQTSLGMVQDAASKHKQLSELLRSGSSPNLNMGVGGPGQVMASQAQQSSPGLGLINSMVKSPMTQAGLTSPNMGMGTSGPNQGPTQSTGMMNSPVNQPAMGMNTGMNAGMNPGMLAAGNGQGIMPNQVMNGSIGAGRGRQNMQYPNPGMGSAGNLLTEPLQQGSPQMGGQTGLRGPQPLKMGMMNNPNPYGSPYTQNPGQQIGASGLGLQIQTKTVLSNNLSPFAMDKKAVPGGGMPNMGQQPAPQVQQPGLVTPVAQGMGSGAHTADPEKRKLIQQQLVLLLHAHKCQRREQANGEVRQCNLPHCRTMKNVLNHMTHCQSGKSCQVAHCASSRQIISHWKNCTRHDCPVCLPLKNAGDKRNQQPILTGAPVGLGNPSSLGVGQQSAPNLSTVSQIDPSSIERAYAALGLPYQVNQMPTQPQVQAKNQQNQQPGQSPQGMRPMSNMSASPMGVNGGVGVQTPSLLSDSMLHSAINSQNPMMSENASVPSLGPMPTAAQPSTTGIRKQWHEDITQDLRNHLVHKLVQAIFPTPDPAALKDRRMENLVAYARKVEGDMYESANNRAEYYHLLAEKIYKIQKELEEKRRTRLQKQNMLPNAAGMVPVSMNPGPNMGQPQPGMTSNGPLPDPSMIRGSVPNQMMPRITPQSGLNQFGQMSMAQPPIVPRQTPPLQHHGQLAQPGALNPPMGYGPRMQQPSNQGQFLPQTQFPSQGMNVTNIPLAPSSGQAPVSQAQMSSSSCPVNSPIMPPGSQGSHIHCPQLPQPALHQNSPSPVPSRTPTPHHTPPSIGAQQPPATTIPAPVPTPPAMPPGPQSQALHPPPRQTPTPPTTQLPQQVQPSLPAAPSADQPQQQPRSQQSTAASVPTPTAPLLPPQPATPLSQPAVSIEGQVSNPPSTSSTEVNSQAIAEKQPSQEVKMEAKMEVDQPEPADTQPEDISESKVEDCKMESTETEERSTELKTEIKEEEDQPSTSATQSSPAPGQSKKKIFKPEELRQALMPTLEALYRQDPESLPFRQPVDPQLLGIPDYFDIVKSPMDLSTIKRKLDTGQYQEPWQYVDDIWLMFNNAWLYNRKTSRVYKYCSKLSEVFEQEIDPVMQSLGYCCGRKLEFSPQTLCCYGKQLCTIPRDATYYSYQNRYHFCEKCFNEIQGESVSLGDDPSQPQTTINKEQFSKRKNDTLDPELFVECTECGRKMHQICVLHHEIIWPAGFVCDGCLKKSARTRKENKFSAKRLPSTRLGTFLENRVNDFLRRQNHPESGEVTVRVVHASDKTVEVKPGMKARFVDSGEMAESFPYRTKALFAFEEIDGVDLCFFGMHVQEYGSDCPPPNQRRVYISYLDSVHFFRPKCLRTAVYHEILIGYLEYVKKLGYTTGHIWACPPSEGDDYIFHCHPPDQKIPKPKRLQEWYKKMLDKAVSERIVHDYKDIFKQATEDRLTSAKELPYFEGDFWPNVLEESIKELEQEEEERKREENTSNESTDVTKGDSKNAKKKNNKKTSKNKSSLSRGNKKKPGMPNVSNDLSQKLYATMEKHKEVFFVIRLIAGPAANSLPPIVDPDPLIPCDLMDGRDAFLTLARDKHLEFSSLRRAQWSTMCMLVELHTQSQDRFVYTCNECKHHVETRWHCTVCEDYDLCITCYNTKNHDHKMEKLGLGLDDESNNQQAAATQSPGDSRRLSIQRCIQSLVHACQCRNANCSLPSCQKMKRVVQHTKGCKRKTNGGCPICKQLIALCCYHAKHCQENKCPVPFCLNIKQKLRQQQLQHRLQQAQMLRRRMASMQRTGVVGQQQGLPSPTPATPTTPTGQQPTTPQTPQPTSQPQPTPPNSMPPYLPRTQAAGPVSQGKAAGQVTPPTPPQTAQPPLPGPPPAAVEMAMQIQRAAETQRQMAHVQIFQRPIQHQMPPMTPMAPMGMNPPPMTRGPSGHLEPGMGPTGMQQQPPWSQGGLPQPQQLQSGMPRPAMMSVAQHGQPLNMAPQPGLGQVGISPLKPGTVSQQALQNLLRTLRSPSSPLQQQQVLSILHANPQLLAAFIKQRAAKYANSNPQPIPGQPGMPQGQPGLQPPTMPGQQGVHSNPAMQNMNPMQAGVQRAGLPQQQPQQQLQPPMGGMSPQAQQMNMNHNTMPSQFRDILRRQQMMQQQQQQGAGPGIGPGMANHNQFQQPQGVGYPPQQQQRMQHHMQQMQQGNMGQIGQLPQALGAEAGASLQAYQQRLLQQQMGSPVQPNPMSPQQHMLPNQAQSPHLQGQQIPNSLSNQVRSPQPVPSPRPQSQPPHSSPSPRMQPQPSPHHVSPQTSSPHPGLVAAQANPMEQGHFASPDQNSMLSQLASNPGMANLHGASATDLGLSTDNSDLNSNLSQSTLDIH
UniProt Q92793, whole entry: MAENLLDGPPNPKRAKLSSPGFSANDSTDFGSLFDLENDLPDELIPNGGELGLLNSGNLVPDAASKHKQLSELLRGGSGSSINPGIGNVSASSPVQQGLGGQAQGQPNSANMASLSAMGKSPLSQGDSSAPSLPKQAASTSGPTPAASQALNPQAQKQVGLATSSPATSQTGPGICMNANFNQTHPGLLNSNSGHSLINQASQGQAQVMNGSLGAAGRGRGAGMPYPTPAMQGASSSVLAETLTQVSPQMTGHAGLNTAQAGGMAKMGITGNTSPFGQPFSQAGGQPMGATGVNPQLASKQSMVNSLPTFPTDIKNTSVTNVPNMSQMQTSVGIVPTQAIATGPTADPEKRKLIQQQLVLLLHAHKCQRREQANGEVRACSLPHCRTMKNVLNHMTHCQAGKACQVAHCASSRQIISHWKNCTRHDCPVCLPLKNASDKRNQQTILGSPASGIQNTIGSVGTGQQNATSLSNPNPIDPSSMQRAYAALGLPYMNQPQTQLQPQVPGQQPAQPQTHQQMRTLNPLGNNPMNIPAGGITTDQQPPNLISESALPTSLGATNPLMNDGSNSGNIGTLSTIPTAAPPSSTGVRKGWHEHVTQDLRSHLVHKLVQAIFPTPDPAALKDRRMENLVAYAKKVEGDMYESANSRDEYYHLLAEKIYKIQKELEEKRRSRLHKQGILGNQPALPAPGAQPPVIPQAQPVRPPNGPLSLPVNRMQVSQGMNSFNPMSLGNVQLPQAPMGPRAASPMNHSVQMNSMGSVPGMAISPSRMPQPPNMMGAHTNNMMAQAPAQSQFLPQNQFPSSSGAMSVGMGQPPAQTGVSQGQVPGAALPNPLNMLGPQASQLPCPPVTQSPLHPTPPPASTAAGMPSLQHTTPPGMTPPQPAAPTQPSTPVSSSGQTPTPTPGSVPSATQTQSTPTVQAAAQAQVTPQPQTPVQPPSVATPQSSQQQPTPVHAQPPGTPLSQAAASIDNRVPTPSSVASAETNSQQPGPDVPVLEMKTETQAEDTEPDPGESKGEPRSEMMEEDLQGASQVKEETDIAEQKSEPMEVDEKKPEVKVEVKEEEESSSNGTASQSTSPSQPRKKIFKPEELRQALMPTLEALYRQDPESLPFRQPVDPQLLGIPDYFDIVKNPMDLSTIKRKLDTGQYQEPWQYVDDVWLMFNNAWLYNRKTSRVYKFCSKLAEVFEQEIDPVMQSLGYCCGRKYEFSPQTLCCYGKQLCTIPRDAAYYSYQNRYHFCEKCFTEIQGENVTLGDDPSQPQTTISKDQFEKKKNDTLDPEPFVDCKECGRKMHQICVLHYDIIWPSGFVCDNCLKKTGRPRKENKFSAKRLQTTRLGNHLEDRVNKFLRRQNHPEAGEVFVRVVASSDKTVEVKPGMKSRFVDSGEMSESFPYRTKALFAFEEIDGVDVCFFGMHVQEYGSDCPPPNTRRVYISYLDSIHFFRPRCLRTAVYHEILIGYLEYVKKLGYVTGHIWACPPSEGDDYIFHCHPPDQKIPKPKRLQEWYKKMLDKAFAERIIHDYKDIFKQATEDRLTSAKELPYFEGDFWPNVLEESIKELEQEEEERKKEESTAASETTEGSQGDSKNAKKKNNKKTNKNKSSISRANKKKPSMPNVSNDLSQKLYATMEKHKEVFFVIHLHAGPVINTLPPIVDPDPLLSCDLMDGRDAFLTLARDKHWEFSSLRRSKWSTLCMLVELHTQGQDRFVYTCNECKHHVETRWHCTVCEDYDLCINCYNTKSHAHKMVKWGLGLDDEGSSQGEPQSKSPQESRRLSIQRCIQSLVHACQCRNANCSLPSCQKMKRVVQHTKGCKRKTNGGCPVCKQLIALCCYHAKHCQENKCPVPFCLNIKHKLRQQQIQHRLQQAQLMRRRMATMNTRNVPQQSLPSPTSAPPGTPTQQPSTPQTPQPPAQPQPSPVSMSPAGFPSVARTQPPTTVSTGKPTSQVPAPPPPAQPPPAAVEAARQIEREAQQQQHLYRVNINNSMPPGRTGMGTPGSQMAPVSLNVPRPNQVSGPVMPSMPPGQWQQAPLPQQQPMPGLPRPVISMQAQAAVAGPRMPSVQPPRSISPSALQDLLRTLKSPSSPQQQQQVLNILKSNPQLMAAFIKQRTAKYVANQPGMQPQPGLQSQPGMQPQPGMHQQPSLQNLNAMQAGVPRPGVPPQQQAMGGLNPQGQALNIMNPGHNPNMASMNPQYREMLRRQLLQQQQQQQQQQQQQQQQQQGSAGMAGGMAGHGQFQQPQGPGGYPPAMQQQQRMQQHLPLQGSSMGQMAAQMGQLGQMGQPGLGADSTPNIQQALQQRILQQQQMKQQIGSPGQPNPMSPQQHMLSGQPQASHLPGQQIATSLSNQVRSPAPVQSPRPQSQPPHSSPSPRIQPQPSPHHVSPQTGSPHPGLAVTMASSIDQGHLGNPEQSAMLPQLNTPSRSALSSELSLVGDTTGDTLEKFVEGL

The target in experiment [1] is p300 (Homo sapiens, UniProt Q09472). The experiment in a line: P300 degradation, HiBit technology in A549 P300 HiBit cells (2 h). The note with it: for P300 A549 2 h HiBit DMax (%): 2 hrs post treatment; for DC50: read-out: P300 A549 2 h HiBit DC50, 2 hrs post treatment. Here is the method:
(§1) p300 and CBP degradation potency and Dmax were determined using in cell western (ICW) assay technology in H1299 cells or HiBit technology in A549 HiBit cells.
(§2) A549 P300 HiBit and A549 CBP HiBit cells were plated in separate 384-well, TC treated, white-opaque, flat-bottomed microplate. Cells were plated at a cell density of 0.2×10^4 cells per well in assay media comprised of F-12K, 10% heat inactivated FBS, and 1% penicillin/streptomycin. Assay microplates containing HiBit cells were placed in a 37° C., 5% CO2, tissue culture incubator and left to equilibrate overnight. The next day cells were treated with serial dilutions of test compound made up of 10 mM stock solutions in DMSO. 384-Well plates containing treated cells were then placed back into a 37° C., 5% CO2, tissue culture incubator. Assay microplates containing A549 P300 HiBit cells were incubated for 2 hrs post treatment before P300 destruction was assessed, while microplates containing A549 CBP HiBit cells were incubated for 24 hrs post treatment before CBP destruction was determined. On the day of each assay time point, microplates were removed from the tissue culture incubator and prepared HiBit Lytic detection buffer (Promega, cat #N3O40) was added to each plate. Plates were covered with aluminum foil and incubated for ten minutes at room temperature on an orbital shaker. After incubation, luminescent signal of each plate was measured using the Envision instrument (Perkin Elmer).
(The HiBiT peptide binds its large partner to form an active luciferase.)

Experiment [2] deals with CBP (Homo sapiens, UniProt Q92793). The experiment in a line: CBP degradation, HiBit technology in A549 CBP HiBit cells (24 h). The conditions noted are these: for CBP A549 24 h HiBit DMax (%): 24 hrs post treatment; for DC50: read-out: CBP A549 24 h HiBit DC50, 24 hrs post treatment. Here is the method: as §1, §2

In general, DC50 refers to the concentration giving 50% degradation.

Turning to `Cc1cc2c(N3CCCc4nc(-c5ccc(C(=O)NCC#Cc6cc7c([C@@H]8CCC(=O)NC8=O)cccc7o6)nc5)ncc43)nc(N3CCOCC3)cc2n(C)c1=O`, in experiment [1], the “P300 A549 2 h HiBit DMax (%)” value was “B (“B”: 60-79%)” and the DC50 was 10 to 99 nM. In experiment [2], the “CBP A549 24 h HiBit DMax (%)” value was “E (“E”: < 20%)” and the DC50 was above 1000 nM.
With `Cc1cc2c(N3CCCc4nc(-c5ccc(C(=O)NCC#Cc6cc7c(C8CCC(=O)NC8=O)nccc7o6)nc5)ncc43)nc(N3CCOCC3)cc2n(C)c1=O` (stereo not shown), in experiment [1], the “P300 A549 2 h HiBit DMax (%)” value is recorded as “A (“A”: > 80%)” and the DC50 was below 1 nM. For the same compound, in experiment [2], the “CBP A549 24 h HiBit DMax (%)” value is “D (“D”: 20-39%)” and the DC50 is 10 to 99 nM.
On to `Cc1cc2c(N3CCOc4cc(-c5ccc(C(=O)NCC#Cc6cc7c(C8CCC(=O)NC8=O)cccc7o6)nc5)ncc43)cc(C3CCOCC3)nc2n(C)c1=O` (stereo not shown), for which, in experiment [1], the “P300 A549 2 h HiBit DMax (%)” value was “A (“A”: > 80%)” and the DC50 was below 1 nM. For the same compound, in experiment [2], the “CBP A549 24 h HiBit DMax (%)” value is “E (“E”: < 20%)” and the DC50 is above 1000 nM.
In the same order, the values of `Cc1cc2c(N3CCCc4nc(-c5ccc(C(=O)NCC#Cc6cc7c(C8CCC(=O)NC8=O)cccc7o6)nc5)ncc43)cc(C3CCOCC3)cc2n(C)c1=O` (stereo not shown) are “A (“A”: > 80%)”, below 1 nM, “E (“E”: < 20%)” and above 1000 nM.
